The experiment is classed as in vivo, cat. The conditions noted are these: mean ± SEM; eight healthy cats.

Data on 1 substance can be found in PMC5260423 (Journal of Veterinary Internal Medicine, 2016).

For the substance Insulin aspart, the “duration of action, IM” value amounted to 176 ± 19.8 min; the “duration of action, SC” value amounted to 154 ± 14.8 min; the “time to onset of action, IM” value is 13.75 ± 3.1 min; the “time to onset of action, SC” value amounted to 11.12 ± 0.97 min.
